According to ChEMBL document CHEMBL1201862, “PubChem BioAssay data set” (2004):

What was measured:
Test in all cases: growth of human tumour cells (NCI), 48 h
[1] = system: T47D
[2] = system: OVCAR-8
[3] = system: ACHN
[4] = system: SNB-19
[5] = system: BT-549
[6] = system: OVCAR-3
[7] = system: SK-MEL-28
[8] = system: SK-MEL-2
[9] = system: OVCAR-4
[10] = system: MDA-N
[11] = system: RXF 393
[12] = system: SNB-75
[13] = system: LOX IMVI
[14] = system: SK-OV-3
[15] = system: MDA-MB-231
[16] = system: U-251
[17] = system: PC-3
[18] = system: HT-29
[19] = system: M14
[20] = system: TK-10
[21] = system: HOP-62
[22] = system: COLO 205
[23] = system: DU-145
[24] = system: SN12C
[25] = system: CAKI-1
[26] = system: NCI-H460
[27] = system: NCI-H226
[28] = system: SW-620
[29] = system: Malme-3M

Measured: GI50

O=C1c2c(O)ccc(O)c2C(=O)c2c(NCCNCCO)ccc(NCCNCCO)c21 [MITOXANTRONE]
active: [1] < 46.6 nM | [2] 25.5 nM | [3] < 10 nM | [4] 24 nM | [5] 104 nM | [6] 361 nM | [7] 322 nM | [8] 209 nM | [9] 344 nM | [10] 260 nM | [11] 41.6 nM | [12] < 13.1 nM | [13] 21.4 nM | [14] 24.6 nM | [15] 196 nM | [16] < 10.8 nM | [17] 125 nM | [18] 135 nM | [19] 183 nM | [20] 240 nM | [21] < 12.4 nM | [22] 135 nM | [23] 22.5 nM | [24] < 13.3 nM | [25] 13.4 nM | [26] < 10 nM | [27] < 10 nM | [28] 93.8 nM | [29] 156 nM

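Interpolation was linear, between the two tested concentrations surrounding the appropriate level; five concentrations were tested over 48 hours in 96-well plates. The concentration for 50% growth inhibition is given as GI50.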 Activity calls are given as the source filed them. Cut-off read from the data, not from the text of the source: active = GI50 up to about 1.1 µM and inactive = higher.
